One test has as its target T1, LIMK2KD (Homo sapiens, UniProt P53671).
T1 construct: The cDNA coding for LIMK2 residues 330 to 632 was PCR amplified; His6 (N, cleaved yes); made in house; host or cells: baculovirus; Sf9 for virus, TriEx insect cells for expression
Nature of the test: Differential (dynamic) scanning fluorimetry (DSF) assay, LIMK2KD. The format is binding. As to conditions: read-out: TM Shift LIMK2 (K).

By UniProt entry, the sequences of proteins in these tests, tags left out. Residues count along the entry.
UniProt P53671, 330-632: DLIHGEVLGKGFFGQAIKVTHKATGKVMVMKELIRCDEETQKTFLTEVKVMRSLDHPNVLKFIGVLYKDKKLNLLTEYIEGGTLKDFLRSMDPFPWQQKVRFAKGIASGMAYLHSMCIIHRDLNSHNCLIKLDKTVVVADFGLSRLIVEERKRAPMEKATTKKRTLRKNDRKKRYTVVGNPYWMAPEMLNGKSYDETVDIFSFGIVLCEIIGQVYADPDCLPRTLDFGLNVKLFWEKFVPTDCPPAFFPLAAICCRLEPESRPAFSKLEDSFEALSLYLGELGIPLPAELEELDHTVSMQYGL
UniProt P53667, 330-637: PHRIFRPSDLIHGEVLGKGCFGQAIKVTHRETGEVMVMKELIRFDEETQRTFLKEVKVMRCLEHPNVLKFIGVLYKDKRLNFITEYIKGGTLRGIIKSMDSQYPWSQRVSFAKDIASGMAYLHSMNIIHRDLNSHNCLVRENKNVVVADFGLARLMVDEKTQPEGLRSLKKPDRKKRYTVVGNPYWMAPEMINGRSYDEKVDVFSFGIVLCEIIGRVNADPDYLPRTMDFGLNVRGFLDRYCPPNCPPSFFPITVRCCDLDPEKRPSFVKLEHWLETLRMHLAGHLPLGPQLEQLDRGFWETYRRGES

A further test deals with LIMK1KD (Homo sapiens, UniProt P53667). Nature of the test: Differential (dynamic) scanning fluorimetry (DSF) assay, LIMK1KD. The settings on record: read-out: TM Shift LIMK1 (K).

`CN1CCC(COc2cnc(-c3cccc(Cn4nc(-c5cccc(C#N)c5)ccc4=O)c3)nc2)CC1`: the ΔTm at 10 µM on LIMK2KD and on LIMK1KD was 0.3 °C throughout.
